Experimental data from US4857530A, “Substituted quinazolinones as anticancer agents” (Warner-Lambert Company, priority 1987, dated 1989).

System: L1210 murine leukemia cell line
Assay: growth inhibition of L1210 murine leukemia cell line in vitro
Format: cell-based
Settings: Mus musculus, L1210, 72 h
Method: The compounds of formula I were also tested against the L1210 murine leukemia cell line in vitro.
A cell culture of the L1210 murine leukemia cell line is grown in RPMI 1640 culture medium supplemented with 5% fetal bovine serum containing gentamicin (50 micrograms per milliliter). Dilutions of the test compound are prepared in the appropriate solvent and 20 microliters of each dilution are added to a 24-well Linbro tissue culture plate, followed by the addition of 2.0 ml of cell suspension containing 3×10^4 cells/milliliter. Solvent and medium controls are included in each test.
After incubation at 37° C. for three days in 5% CO2, the contents of each well are removed and the cells are counted in a ZBI Coulter counter.

With C#CCN(Cc1ccc2nc(N)[nH]c(=O)c2c1)c1ccc(F)cc1 [Example 2f, 2-Amino-6-[[(4-fluorophenyl)-2-propynylamino]methyl]-4(3H)-quinazolinone] the IC50 was 26.1 µM.
